{
  "sequences": {"note": "Protein sequences, listed by entry. Tags and fused reporters are not part of them. Lines headed by an entry give the natural chain unless they say otherwise; changes in a name come on top.", "UniProt Q01726": "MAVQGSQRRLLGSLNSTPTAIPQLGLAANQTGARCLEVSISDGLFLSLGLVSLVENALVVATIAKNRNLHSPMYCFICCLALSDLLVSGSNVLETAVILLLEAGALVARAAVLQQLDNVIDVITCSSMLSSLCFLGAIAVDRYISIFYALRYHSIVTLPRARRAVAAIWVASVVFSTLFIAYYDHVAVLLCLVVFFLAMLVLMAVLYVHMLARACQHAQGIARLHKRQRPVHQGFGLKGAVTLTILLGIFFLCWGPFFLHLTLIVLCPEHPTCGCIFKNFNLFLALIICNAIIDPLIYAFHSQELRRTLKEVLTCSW"},
  "source": "patent US6602856B1",
  "about": "“Antagonists of alpha-melanocyte stimulating hormone and methods based thereon” (priority 1995, dated 2003)",
  "biological_target": "T1, human melanoma MSH receptor (Homo sapiens, UniProt Q01726)",
  "T1 construct": "expressed in transfected cells; host or cells: Xenopus fibroblasts, electroporated with pcDNAI/NEO carrying the receptor cDNA",
  "experiment": "cAMP in Xenopus fibroblasts transfected with human melanoma MSH receptor",
  "format": "cell-based",
  "conditions": "dWRL 10 μM; 5 nM α-MSH; relative to MSH alone",
  "description": "Control=no additional drugs. MSH=5 nM α-MSH. dWRL concentration was 10 μM. Forskolin=100 μM forskolin (7β-desacetyl-7β-[g-(N-methylpiperazino)-butyryl; from Calbiochem).\nXenopus fibroblasts (Daniolos, et al., 1990, Pigment Cell Res 3, 38-43) were transfected with “Vector alone” (pcDNAI/NEO, Invitrogen) or with “HMelMSHR” (pcDNAI/NEO containing a human melanoma MSH receptor insert (Mountjoy et al., 1992, Science 257, 1248-1251; kind gift from Roger Cone). Control=no additional drugs. MSH=5 nM μM α-MSH. The dWRL concentration was 10 μM. Forskolin=100 μM forskolin (7β-desacetyl-7β-[g-(N-methylpiperazino)-butyryl; from Calbiochem).\nTransfections were performed by electroporation (≈5×10^−1 cells per 400 μL in 70% phosphate-buffered saline, pH 7.0, plus 10 μg of test cDNA) using 0.2 cm cuvettes in a BTX ECM-600 (475 V, 720 ohm, and 400 μF). 48 hr after transfection, confluent cells, plated in 12-well tissue culture plates (Falcon), were rinsed for 1 hr with 70% L-15 medium (Sigma) containing 0.5% bovine serum albumin (BSA) (Sigma), and again for 5 min with added 0.5% bovine serum albumin (BSA) (Sigma), and again for 5 min with added 0.5 mM IBMX (3-isobutyl-1-methlylxanthine; from Aldrich). Test drugs were then added with IBMX present for 45 min and intracellular cAMP extracted with 1 ml of 60% ethanol per well. cAMP from cAMP-binding protein (21; Kit from Amersham). […]",
  "note": "“Also recorded” adds a separate entry of the source.",
  "data": [
    {"smiles": "CC(C)C[C@H](NC(=O)[C@H](CCCNC(=N)N)NC(=O)[C@H](N)Cc1c[nH]c2ccccc12)C(N)=O", "note": "[A1, D-Trp-Arg-Leu-NH2]", "values": [
      {"measurement": "inhibition of cAMP formation in hMel MSHR transfected cells", "value": "functional antagonism; also recorded: significantly inhibits"}
    ]}
  ]
}
